The text below walks through data of US7208517B1, “Endothelin antagonists” (Abbott Labortories, priority 1994, dated 2007).

Sequences of proteins named here, by UniProt entry; tags and fusion partners are left off. Residues count along the entry.
UniProt P25101, 21-427: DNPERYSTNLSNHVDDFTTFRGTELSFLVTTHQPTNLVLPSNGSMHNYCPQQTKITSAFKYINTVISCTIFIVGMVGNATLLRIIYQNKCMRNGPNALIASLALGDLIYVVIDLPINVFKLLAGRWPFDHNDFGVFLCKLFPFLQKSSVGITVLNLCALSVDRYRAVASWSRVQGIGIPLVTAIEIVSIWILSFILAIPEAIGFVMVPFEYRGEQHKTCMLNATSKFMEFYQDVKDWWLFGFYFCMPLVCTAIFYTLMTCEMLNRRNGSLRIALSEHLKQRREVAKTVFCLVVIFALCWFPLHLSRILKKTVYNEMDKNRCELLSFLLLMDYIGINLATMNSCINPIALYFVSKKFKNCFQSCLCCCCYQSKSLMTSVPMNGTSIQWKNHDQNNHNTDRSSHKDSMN

One experiment concerns the target T1, human ETA receptor (Homo sapiens, UniProt P25101).
T1 construct: expressed in transfected cells; host or cells: CHO cells, permanently transfected
Kind of experiment: ETA/ETB selectivity: (125I)ET-1 competition binding, CHO cells transfected with human ETA receptor (hET-A). As to conditions: 0.1 nM (125I)ET-1. The method, then:
The mixture was centrifuged at 1000×g for 10 min. The supernatant was collected and centrifuged at 60,000×g for 60 min. The precipitate was resuspended in 20 mM Tris, pH 7.4 containing protease inhibitor and centrifuged again. The final membrane pellet was resuspended in 20 mM Tris, pH 7.4 containing protease inhibitors and stored at −80° C. until used. Protein content was determined by the Bio-Rad dye-binding protein assay.
Binding assays were performed in 96-well microtiter plates pretreated with 0.1% BSA. […] After incubation, unbound ligands were separated from bound ligands by a vacuum filtration method using glass-fiber filter strips in PHD cell harvesters (Cambridge Technology, Inc., MA), washing the filter strips three times with saline (1 mL). Nonspecific binding was determined in the presence of 1 μM ET-1. IC50 values are calculated using an average of at least two separate determinations.

A further experiment concerns the target T2, human ETB receptor (Homo sapiens, UniProt P24530).
T2 construct: expressed in transfected cells; host or cells: CHO cells, permanently transfected
T2 sequence (P24530 27-442): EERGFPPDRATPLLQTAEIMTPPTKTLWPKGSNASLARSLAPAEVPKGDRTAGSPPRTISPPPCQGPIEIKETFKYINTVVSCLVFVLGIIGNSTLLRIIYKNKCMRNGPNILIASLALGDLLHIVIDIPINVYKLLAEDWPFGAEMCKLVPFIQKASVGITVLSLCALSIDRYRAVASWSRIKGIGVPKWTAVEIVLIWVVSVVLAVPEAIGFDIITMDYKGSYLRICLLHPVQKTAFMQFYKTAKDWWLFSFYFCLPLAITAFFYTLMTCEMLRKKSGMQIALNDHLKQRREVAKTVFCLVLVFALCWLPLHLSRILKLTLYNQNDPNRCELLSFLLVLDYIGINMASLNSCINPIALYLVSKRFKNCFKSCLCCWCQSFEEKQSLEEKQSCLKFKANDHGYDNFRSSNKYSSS
Kind of experiment: ETA/ETB selectivity: (125I)ET-3 competition binding, CHO cells transfected with human ETB receptor (hET-B). As to conditions: 0.1 nM (125I)ET-3. As to the method:
MMQ cells, porcine cerebellar tissues (known to contain ETB receptors) and chinese hamster ovary cells (CHO) permanently transfected with the human ETA or ETB receptor were homogenized in 25 ml of 10 mM Hepes (pH 7.4) containing 0.25 M sucrose and a protease inhibitor [50 mM EDTA, 0.1 mM PMSF, 5 μg/ml Pepstatin A, and 0.025% Bacitracin] using a micro ultrasonic cell disrupter. The mixture was centrifuged at 1000×g for 10 min. The supernatant was collected and centrifuged at 60,000×g for 60 min. The precipitate was resuspended in 20 mM Tris, pH 7.4 containing protease inhibitor and centrifuged again. The final membrane pellet was resuspended in 20 mM Tris, pH 7.4 containing protease inhibitors and stored at −80° C. until used. Protein content was determined by the Bio-Rad dye-binding protein assay.
Binding assays were performed in 96-well microtiter plates pretreated with 0.1% BSA. Membranes prepared from cells were diluted 100 fold in Buffer B (20 mM Tris, 100 mM NaCl, 10 mM MgCl2, pH 7.4, with 0.2% BSA, 0.1 mM PMSF, 5 μg/mL Pepstatin A, 0.025% bacitracin, and 50 mM EDTA) to a final concentration of 0.2 mg/mL of protein. […] Nonspecific binding was determined in the presence of 1 μM ET-1. IC50 values are calculated using an average of at least two separate determinations.

Take `CCCCN(CCCC)C(=O)CN1C[C@H](c2cc(OC)c3c(c2)OCO3)[C@@H](C(=O)O)[C@@H]1CC(C)(C)CCC` [compound 536]: the figures for the IC50 at human ETA receptor and at human ETB receptor were 0.00092 µM and 52 µM, respectively.
On to `CCCCN(CCCC)C(=O)CN1CC(c2cc(OC)c3c(c2)OCO3)C(C(=O)O)C1CC(C)(C)CCC` (stereo not shown) [compound 514], for which the figures for the half-maximal inhibitory concentration (IC50) on human ETA receptor and at human ETB receptor were 0.00036 µM and 9.8 µM, respectively.
